Reference: paper PMC3466219 (PLoS ONE, 2012)
“And” between values parts separate entries of the source, which are not always exact repeats. Equal entries are not always repeated.

Amino acid sequences for entries named in this document (tags omitted). Residues count along the entry.
UniProt Q92831, whole entry, species assumed: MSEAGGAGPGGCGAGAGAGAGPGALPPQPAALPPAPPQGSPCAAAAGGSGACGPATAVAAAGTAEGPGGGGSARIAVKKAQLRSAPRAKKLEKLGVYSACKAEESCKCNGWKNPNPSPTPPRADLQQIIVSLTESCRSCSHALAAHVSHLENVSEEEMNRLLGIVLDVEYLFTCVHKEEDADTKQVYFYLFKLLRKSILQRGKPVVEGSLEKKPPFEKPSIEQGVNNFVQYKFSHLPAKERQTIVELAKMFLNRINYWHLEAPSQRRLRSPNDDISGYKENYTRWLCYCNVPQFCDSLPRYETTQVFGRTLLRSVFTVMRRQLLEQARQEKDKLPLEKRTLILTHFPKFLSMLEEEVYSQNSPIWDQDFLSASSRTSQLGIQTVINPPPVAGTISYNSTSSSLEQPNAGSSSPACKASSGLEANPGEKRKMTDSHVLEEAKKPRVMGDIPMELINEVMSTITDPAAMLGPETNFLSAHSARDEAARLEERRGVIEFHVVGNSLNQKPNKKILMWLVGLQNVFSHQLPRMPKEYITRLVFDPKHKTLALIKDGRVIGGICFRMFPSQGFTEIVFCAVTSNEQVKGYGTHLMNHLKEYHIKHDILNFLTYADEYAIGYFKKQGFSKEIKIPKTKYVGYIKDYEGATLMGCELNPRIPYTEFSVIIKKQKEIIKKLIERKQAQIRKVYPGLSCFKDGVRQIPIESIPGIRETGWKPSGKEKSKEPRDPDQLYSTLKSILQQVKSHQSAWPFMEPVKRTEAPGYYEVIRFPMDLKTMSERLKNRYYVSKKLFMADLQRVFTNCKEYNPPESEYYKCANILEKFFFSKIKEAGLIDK
UniProt Q92830, whole entry, species assumed: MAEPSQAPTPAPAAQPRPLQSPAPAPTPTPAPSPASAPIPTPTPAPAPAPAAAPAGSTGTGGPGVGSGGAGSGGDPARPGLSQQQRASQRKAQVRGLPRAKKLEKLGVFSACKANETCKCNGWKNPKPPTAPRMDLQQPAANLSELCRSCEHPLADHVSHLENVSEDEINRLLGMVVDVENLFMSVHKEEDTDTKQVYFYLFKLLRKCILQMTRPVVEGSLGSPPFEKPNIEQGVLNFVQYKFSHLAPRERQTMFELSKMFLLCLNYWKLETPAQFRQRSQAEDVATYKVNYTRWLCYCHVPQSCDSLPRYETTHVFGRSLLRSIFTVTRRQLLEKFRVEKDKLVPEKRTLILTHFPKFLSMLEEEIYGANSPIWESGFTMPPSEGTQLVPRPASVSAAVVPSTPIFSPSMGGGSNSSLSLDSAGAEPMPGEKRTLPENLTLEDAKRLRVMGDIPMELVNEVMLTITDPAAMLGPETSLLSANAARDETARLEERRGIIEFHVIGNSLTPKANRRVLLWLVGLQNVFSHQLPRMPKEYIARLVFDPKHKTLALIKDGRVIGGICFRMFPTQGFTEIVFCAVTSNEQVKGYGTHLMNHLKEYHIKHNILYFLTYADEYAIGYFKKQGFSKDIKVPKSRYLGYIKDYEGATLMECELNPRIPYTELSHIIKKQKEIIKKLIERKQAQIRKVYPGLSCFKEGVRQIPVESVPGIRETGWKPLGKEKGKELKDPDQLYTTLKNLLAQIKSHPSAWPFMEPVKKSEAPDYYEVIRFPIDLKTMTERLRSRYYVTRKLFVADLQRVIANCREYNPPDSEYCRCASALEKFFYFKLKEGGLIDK
UniProt Q92993, whole entry: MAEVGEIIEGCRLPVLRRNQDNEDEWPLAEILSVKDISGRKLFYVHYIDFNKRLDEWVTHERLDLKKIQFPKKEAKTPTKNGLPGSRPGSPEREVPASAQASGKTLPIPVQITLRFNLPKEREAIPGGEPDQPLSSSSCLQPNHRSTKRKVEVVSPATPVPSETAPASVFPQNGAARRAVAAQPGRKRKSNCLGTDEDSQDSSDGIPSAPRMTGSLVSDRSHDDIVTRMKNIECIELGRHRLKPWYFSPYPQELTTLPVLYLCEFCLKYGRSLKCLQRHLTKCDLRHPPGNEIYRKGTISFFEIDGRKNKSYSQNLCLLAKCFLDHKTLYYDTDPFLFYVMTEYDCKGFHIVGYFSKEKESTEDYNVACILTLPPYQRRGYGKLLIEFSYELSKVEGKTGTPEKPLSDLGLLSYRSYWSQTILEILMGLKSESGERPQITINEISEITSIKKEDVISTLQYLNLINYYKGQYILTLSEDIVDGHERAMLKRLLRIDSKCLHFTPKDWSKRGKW
UniProt Q09472, 1287-1663 limits assumed: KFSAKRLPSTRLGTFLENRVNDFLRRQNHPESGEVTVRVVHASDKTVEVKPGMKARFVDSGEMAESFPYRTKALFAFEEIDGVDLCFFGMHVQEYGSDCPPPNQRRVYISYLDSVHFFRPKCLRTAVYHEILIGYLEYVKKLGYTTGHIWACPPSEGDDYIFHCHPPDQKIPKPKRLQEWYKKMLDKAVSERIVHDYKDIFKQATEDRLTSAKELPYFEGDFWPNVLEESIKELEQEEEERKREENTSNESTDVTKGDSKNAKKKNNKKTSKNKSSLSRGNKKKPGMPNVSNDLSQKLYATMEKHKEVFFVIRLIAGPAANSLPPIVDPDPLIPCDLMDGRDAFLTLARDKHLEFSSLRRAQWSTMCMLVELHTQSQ

Tests used:
PCAF = molecular target: T1, PCAF (Homo sapiens, UniProt Q92831); assay: In vitro HAT assay, PCAF; format: biochemical
T1 construct: GST; made in house; host or cells: XA90 Escherichia coli

PC3 cells = assay: cells; conditions: Homo sapiens, PC-3, 72 h
LNCaP-AI cells [1] = assay: cells; conditions: 72 h
GCN5 = GCN5 (Homo sapiens, UniProt Q92830); assay: In vitro HAT assay, GCN5; format: biochemical
Tip60 = Tip60 (Homo sapiens, UniProt Q92993); assay: In vitro HAT assay, Tip60
CWR22rv1 = assay: cells; conditions: CWR22Rv1, 72 h
[2] = tested on: acetylated histone H4K16, H3K14 and H4K8 in LNCaP cells; assay: Western blotting of histone acetylation in LNCaP cells
LNCaP-AI cells [3] = tested on: LNCaP-AI cells
[4] = tested on: γH2AX in LNCaP-CdxR cells
LNCaP cells [5] = tested on: LNCaP cells
[6] = tested on: Tip60 levels in LNCaP cells; format: cell-based
LNCaP-CdxR = assay: cells; conditions: 72 h
LNCaP cells [7] = tested on: LNCaP cells; remark: listed apart in the source
[8] = tested on: caspase 3 and caspase 9 in LNCaP cells
[9] = tested on: pATM and Tip60 levels in LNCaP cells
p300 = p300 (Homo sapiens, UniProt Q09472); assay: In vitro HAT assay, p300; format: biochemical
[10] = tested on: panel of prostate cancer cell lines; assay: cells; conditions: read-out: 50% growth inhibition

## c1cc(SSc2ccns2)sn1 [NU9056, 1,2-Bis(isothiazol-5-yl)disulfane]
PCAF
  IC50: 30 µM and 36 µM
PC3 cells
  GI50: 27 µM
LNCaP-AI cells [1]
  GI50: 16 µM
GCN5
  IC50: > 100 µM
Tip60; HAT IC50 Tip60
  IC50: < 2 µM and 2 µM
Tip60; Tip60 IC50
  IC50: < 2 µM and 2 µM
CWR22rv1
  GI50: 7.5 µM
[2]
  levels of acetylated histone H4K16, H3K14 and H4K8: decreased levels
LNCaP-AI cells [3]
  Sub-G1 population compared to LNCaP cells: significant increase
[4]
  γH2AX after IR: significant difference
LNCaP cells [5]
  G1 or G2M cell cycle arrest: only accumulation in the sub-G1 phase was seen
  sub-G1 population (induction of apoptosis): induction of apoptosis in a time- and concentration-dependent manner
γH2AX foci in 293T cells
  γH2AX formation after IR: still clearly enriched
[6]
  Tip60 levels: unaffected
LNCaP-CdxR
  GI50: 12 µM
LNCaP cells [7]
  colony forming ability: reduced
[8]
  caspase 3 and caspase 9 activation: both caspase 3 and caspase 9 activation in a time- and concentration-dependent manner
γH2AX in LNCaP cells
  γH2AX foci after IR: significantly higher
[9]
  Tip60 accumulation after IR: did not demonstrate Tip60 accumulation
  pATM levels after IR: decrease was much faster
LNCaP-CdxR cells
  Sub-G1 population compared to LNCaP cells: not statistically significant
p300
  IC50: 60 µM and 58 µM
[10]
  IC50: 8 to 27 µM
